According to patent US20210187012A1, “ANTI-COAGULANT AGENT, ANTICOAGULATION DEVICE, BLOOD COAGULATION CURING METHOD, VASCULAR ENDOTHELIAL CELL FUNCTION IMPROVING METHOD, AND METABOLISM IMPROVING METHOD” (H2BANK CO., LTD., priority 2018, published 2021):

How the values were obtained:
[1] = test system: mitochondria extracted from human cultured cells; experiment: NADH oxidation / NAD+ reduction by mitochondria under RET conditions (Example 2); conditions: hydrogen about 25 μM; 1 mM NAD+, 10 mM succinic acid, 0.2 mM Q10, 25 min at 30° C.; 306 pmol/ml in the absence of hydrogen
complex I [2] = experiment: reactive oxygen species from complex I, measured as H2O2, with Strobilurin B (Example 3); conditions: presence of hydrogen, Example 2 conditions plus Strobilurin B
[3] = test system: mitochondria extracted from human cultured cells; experiment: NADH concentration under RET conditions with 5 μM NADH added (Example 6); conditions: hydrogen about 25 μM, 1 mM NAD+, 10 mM succinic acid, 0.2 mM Q10, 25 min at 30° C., 282 pmol/ml in the absence of hydrogen
[4] = test system: mitochondria extracted from human cultured cells; experiment: H2O2 generation with Q1 in place of Q10 (Example 4); conditions: presence of hydrogen
complex I [5] = experiment: reactive oxygen species from complex I, measured as H2O2, with NADH added and Strobilurin B (Example 7); conditions: presence of hydrogen, Example 6 conditions plus Strobilurin B

hydrogen was tested, and the “NADH concentration (average value per minute)” value [1] was 165 pmol/mL, the “decrease of H2O2 relative to absence of hydrogen” value (complex I [2]) was “about one twelfth” and the “reactive oxygen species from complex I measured as H2O2” value (complex I [2]; SOD, 16.4 μM in the absence of hydrogen) was 1.36 µM. For the same substance, the “NADH concentration (average value per minute)” value [3] was 1,118 pmol % ml, the H2O2 ([4]; Example 2 conditions with Q1 in place of Q10) was 195 µM and the “H2O2 increase relative to absence of hydrogen” value ([4]; Q1 in place of Q10) was “about 20 times”. The “H2O2 relative to the value in the absence of hydrogen” value (complex I [5]) was “about one fifth” and the “reactive oxygen species from complex I measured as H2O2” value (complex I [5]; SOD, 23 μM in the absence of hydrogen) was 3.9 µM.
